# According to patent US20060194259A1, “Method for isolating an allosteric effector of a receptor” (priority 2002, published 2006):
# Target: receptor EGFP-NK2R (UniProt P16610)
# Test: Inhibition of the binding of [3H]SR 48968 to EGFP-NK2R
# Parameters: % al (max): maximum value observed for the increase in amplitude of the rapid dissociation rate; ns = n; other: 20 nM of NK; % al (at 10 μM); other: compou; fused on or other part: EGFP fused to the receptor as FRET donor
# Conditions: 1 nM [3H]SR48968; maximal reversal
# Protocol: 25,000 cells expressing the receptor EGFP-NK2R are incubated for 3 hours at 4° C. in a final volume of 500 μl of Hepes buffer in the presence of 1 nM of [^3H] SR48968 and variable concentrations of NKA or 805. On completion of the incubation, the reaction mixtures are filtered on GF/C (Whatmann) glass fibre filters previously incubated in Hepes buffer complemented by 1% (W/V) of powdered semi-skimmed milk, and rinsed three times with 5 ml of Hepes buffer at 4° C. The filters are then arranged in scintillation counter vials to which 3 ml of scintillating cocktail is added. The radioactivity is measured after 16 hours in a radioactivity counter.
substance,measurement,value
neurokinin A [NKA],% of the binding of [3H]SR 48968 reversed,100%
